# Test results from publication PMC2994686, “The Function and Three-Dimensional Structure of a Thromboxane A2/Cysteinyl Leukotriene-Binding Protein from the Saliva of a Mosquito Vector of the Malaria Parasite” (PLoS Biology, 2010).
# Molecular target: AnSt-D7L1 (Anopheles stephensi, UniProt Q95NY5)
# Conditions: ITC, relative to U46619
smiles,measurement,value
CCCCCC/C=C/[C@@H]1[C@@H](C/C=C\CCCC(=O)O)[C@@H]2C[C@H]1N=N2,"binding affinity for AnSt-D7L1, fold lower than for U46619",approximately 10 fold
